# Test results published in paper PMC4354947 (Journal of medicinal chemistry, 2012).
# Experiments:
# [1] = Hydrolysis in human blood serum; assay type: in vitro ADME; settings: for t1/2 (h) human blood serum: 37 °C
# human eNPP1 = assay: Resistance to degradation by human eNPP1; assay type: in vitro ADME; settings: after 20 min, 37 °C, pH 8.5
# alkaline phosphatase = settings: 37 °C, 8 h time course
Substance,t1/2 (h) human blood serum [1],% hydrolysis of human eNPP1 (human eNPP1),"hydrolysis by alkaline phosphatase, in words (alkaline phosphatase)",fold enhancement of half-life in human serum compared with ADP ([1]; human)
"P^1-Borano P^1,P^3-5′-Di-2-methylthioadenosine 5′-Triphosphate, B Isomer [analogue 4B]",14 h,5%,–,–
"P1-Borano P1,P3-5′-Di-2-methylthioadenosine 5′-Triphosphate [analogue 4]",–,–,completely resistant to hydrolysis,7 fold
"P^1-Borano P^1,P^3-5′-Di-2-methylthioadenosine 5′-Triphosphate, A Isomer [analogue 4A]",14 h,0%,–,–
